For one molecule, Activity results are on record in ChEMBL document CHEMBL4041526, “Discovery of 2H-Chromen-2-one Derivatives as G Protein-Coupled Receptor-35 Agonists” (J Med Chem, 2017).

By UniProt entry, the sequences of proteins in these tests, tags left out. Where a name states a change or a piece, a line headed by the entry shows the natural chain unless it says otherwise.
UniProt Q9HC97: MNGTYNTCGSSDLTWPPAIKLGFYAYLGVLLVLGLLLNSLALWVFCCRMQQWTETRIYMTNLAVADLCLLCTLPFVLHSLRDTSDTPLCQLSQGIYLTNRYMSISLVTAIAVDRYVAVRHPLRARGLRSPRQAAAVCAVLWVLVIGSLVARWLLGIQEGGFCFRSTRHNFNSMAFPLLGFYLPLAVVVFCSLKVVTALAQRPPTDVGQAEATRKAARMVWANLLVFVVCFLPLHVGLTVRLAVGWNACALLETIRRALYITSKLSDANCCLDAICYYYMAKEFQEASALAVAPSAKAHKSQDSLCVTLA

Activity calls are given as the source filed them. The rule behind the calls is not given here.

The assay deals with G-protein coupled receptor 35 (Homo sapiens, UniProt Q9HC97). Put plainly: Agonist activity at GPR35 in human HT-29 cells in presence of antagonist ML-145 by DMR assay. It counts as cell-based. Summed up:
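HT-29 DMR antagonist format: ML-145 was titrated against the coumarin agonist, each agonist given at its EC80–EC100 dose. Cells were kept in HBSS and equilibrated 1 h in the reader. IC50 was calculated from the DMR amplitude at 8 min post-stimulation. Mean ± sd, two independent measurements × four replicates (n=8).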

For the molecule `N#Cc1cc2ccccc2oc1=O`, the result was inactive.
